Antibody variant affinities, Ab-14 heavy chain, assay 1

Reference: Engelhart et al. 2022, doi:10.1038/s41597-022-01779-4. File: FLAb, binding data.

Target: peptide PDVDLGDISGINAS, taken from heptad repeat 2 (HR2) of SARS-CoV-2 spike.

Ab-14 is the parent antibody, in scFv form: VH, then a 15-residue (Gly4Ser)3 linker, then VL. The light chain is unchanged in all variants.
VH: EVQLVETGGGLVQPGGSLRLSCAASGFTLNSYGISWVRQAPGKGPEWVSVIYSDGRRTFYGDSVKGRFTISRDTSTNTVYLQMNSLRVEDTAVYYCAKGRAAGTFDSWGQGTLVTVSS
VL: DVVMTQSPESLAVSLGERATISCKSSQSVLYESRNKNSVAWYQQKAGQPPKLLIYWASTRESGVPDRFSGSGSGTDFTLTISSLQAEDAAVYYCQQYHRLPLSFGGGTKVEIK

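The parent was found by panning a naive human phage display library on the peptide. Library AAYL49 holds single substitutions and randomly drawn double and triple substitutions in the CDRs. In AlphaSeq, yeast of one mating type display the scFv and yeast of the other type display the target. The frequency of each diploid, read from paired DNA barcodes, reflects how well the two displayed proteins bind. Read counts were normalised to the haploid input and turned into Kd by a linear fit to BCL2-family pairs of known affinity, for each replicate. There are three technical replicates.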

Changes read parent residue, position, new residue, counted from the first residue of the VH shown.
Numbers give log10(Kd / nM), so 0 is 1 nM and 3 is 1 µM. Smaller is tighter.
Averages over replicates are reported, and they cover detected replicates only.
A pair that was not seen in any replicate is written "nd"; this usually means weak binding, but a binder can also be missed.
For reference, the parent read 0.65 as the reference entry and 4.11 (one replicate of three) as a member of this library.
Three control strains display no target. For library AAYL49, 15% of the pairings with them gave a signal, with a median of 4.06 and one signal in twenty below 2.83, so weak values seen in few replicates may be background. The control count says in how many pairings with the empty strains this scFv gave a signal.

changes	mean, log10 nM	detected	control signals
G33Y/I51A/G55P	nd	0 of 3	0 of 9
L29E/R56E/F59S	nd	0 of 3	0 of 9
N30P/Y32R/D54V	4.37	2 of 3	0 of 9
N30H/S63K/A101C	2.73	2 of 3	0 of 9
L29Y/G33D/Y52M	5.11	1 of 3	3 of 9
N30A/I34A/Y52G	4.07	2 of 3	2 of 9
T58D/A101T/S107N	3.10	3 of 3	3 of 9
S35L/R57K/R100C	nd	0 of 3	4 of 9
L29P/F59P/R100Q	nd	0 of 3	0 of 9
T58R/K65I/A101N	2.83	2 of 3	1 of 9
Y32K/S53H/G99R	nd	0 of 3	0 of 9
T28E/N30Y/A101D	2.17	3 of 3	4 of 9
G33C/I34D/K65M	4.94	2 of 3	3 of 9
N30P/Y60Q/V64T	nd	0 of 3	2 of 9
G55T/T58C/F105K	nd	0 of 3	1 of 9
Y52G/F59W/G61A	4.37	1 of 3	2 of 9
G33F/V50F/S53C	2.99	1 of 3	0 of 9
G61F/D62I/A101E	nd	0 of 3	3 of 9
F27W/D62F/F105W	nd	0 of 3	0 of 9
L29F/R100H/G103Q	3.13	3 of 3	1 of 9
S31K/A101N	1.40	3 of 3	0 of 9
Y32A/S107H	nd	0 of 3	1 of 9
T28E/I34Q/Y60C	4.34	2 of 3	7 of 9
L29Q/Y60I/G99I	4.92	1 of 3	3 of 9
Y32L/Y52W/S53V	4.45	2 of 3	6 of 9
I34C/R56H/V64K	4.56	2 of 3	5 of 9
I51E/D54P/V64F	4.38	1 of 3	3 of 9
S35R/G103K	nd	0 of 3	1 of 9
Y32N/G33F/D54Y	3.93	1 of 3	0 of 9
I34W/I51K/G99D	5.70	2 of 3	4 of 9
R56V/S63K/K65C	2.00	3 of 3	0 of 9
F27K/R57H/G99D	nd	0 of 3	0 of 9
G33C/I51E/R100V	nd	0 of 3	1 of 9
G26C/D62S/R100D	3.07	1 of 3	0 of 9
K65G/G103L/S107I	3.01	3 of 3	4 of 9
N30V/I34S/G99A	nd	0 of 3	1 of 9
S53K/D106I/S107G	nd	0 of 3	0 of 9
S53F/D54S/D106H	4.16	2 of 3	1 of 9
D54G/R57L/V64E	3.84	1 of 3	2 of 9
G55Y/R100L/A102P	4.97	1 of 3	6 of 9
S31N/S53P	1.33	3 of 3	1 of 9
L29C/N30Q/A102K	3.20	1 of 3	0 of 9
D106H/S107H	0.85	3 of 3	3 of 9
T28K/T58Q/F105V	4.23	1 of 3	1 of 9
S31P/R100E/F105A	nd	0 of 3	2 of 9
G26K/V64I/A101R	3.07	3 of 3	3 of 9
I34Y/R57I/A102S	4.82	3 of 3	4 of 9
V50T/A102L/F105C	3.58	1 of 3	0 of 9
S31Y/F105Y	3.16	3 of 3	1 of 9
F27A/I51G/G99P	3.95	1 of 3	1 of 9
Y52V/Y60V/G61D	5.13	2 of 3	5 of 9
I51G/R56C	3.35	2 of 3	1 of 9
S31Y/D54Y/Y60M	nd	0 of 3	0 of 9
F27M/Y32I/F59E	nd	0 of 3	0 of 9
Y32A/S53G/G103K	nd	0 of 3	0 of 9
I51R/T58Q/D106P	nd	0 of 3	0 of 9
G55K/D106C	nd	0 of 3	0 of 9
G33E/R57L/D62Q	5.02	2 of 3	7 of 9
T58E/A102V/S107D	nd	0 of 3	1 of 9
G26K/R56W/S107R	2.93	2 of 3	0 of 9
S35H/T58P/D62G	nd	0 of 3	0 of 9
D62S/K65S/F105V	4.36	3 of 3	3 of 9
G33I/S53W/G99Q	nd	0 of 3	0 of 9
D62P/G103P	nd	0 of 3	1 of 9
S35P/I51D/F59K	3.99	1 of 3	0 of 9
L29A/R57T/G103K	nd	0 of 3	0 of 9
T58K/K65C/G99A	nd	0 of 3	0 of 9
F27L/S31T/G99P	nd	0 of 3	1 of 9
R57Y/A102Q/S107Y	nd	0 of 3	1 of 9
S53G/V64M/R100C	nd	0 of 3	0 of 9
I34S/S53D/D54E	nd	0 of 3	1 of 9
T28H/S31C/R56K	2.42	3 of 3	6 of 9
N30W/Y60P/T104D	3.97	1 of 3	4 of 9
V64K/G99P/D106V	5.30	2 of 3	2 of 9
L29C/N30L/T58M	3.77	1 of 3	2 of 9
G61H/V64C/F105N	1.85	3 of 3	0 of 9
I34E/R56I/T58N	3.57	1 of 3	3 of 9
I51K/R100S/G103R	4.80	1 of 3	0 of 9